# Data: paper PMC8341974 (RSC Chemical Biology, 2021)
# Target: T1, SIRT1 (Homo sapiens, UniProt Q96EB6)
# T1 sequence (Q96EB6 193-741): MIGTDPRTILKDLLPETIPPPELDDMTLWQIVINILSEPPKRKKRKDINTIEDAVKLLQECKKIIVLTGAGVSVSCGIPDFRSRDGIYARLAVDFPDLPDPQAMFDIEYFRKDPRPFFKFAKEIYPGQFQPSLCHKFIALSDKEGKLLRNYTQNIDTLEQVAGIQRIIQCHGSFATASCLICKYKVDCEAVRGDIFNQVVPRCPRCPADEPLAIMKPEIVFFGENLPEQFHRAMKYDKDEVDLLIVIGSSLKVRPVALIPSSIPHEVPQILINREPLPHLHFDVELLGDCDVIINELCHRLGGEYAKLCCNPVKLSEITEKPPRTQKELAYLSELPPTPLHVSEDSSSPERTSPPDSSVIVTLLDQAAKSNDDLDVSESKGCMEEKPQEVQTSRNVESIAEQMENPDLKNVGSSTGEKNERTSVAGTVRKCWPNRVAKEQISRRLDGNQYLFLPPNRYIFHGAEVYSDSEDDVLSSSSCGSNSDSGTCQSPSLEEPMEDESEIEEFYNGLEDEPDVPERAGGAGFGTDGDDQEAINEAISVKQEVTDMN
# Experiment: End-point SIRT1 deacetylation inhibition assay
# Format: biochemical
# Details: 100 µM inhibitor; QPKKac 50 µM; NI = no inhibition
structure (smiles),measurement,value
"CN(C)CCCCC(=O)Nc1ccc(NC(=S)NC(=O)c2ccc(C(C)(C)C)cc2)cc1 [Tenovin-6, reference compound]","%inhibition SIRT1, QPKKac",<50% [100 μM]
